Screens from PubChem BioAssay.
A549 viability – kills or reduces viability of A549 cells in Nrf2 counter-screen | A549 ARE-Fluc cells, CellTiter-Fluor viability, 18-24 h | Potency, µM (series often up to 46 µM), for the others: top-dose activity change, negative = cytotoxicity, usual class: inhibitors | hit rate 0.16% among 390,000; further: potency means the concentration at half of the fitted maximal effect; on the % scale 0 is the no-effect control and ±100 the full control effect
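A549 ARE-Fluc cells in 5% FBS OPTI-MEM, 5000 cells/well, rested 2 h then exposed to compounds in concentration-response for 18-24 h at 37 °C. Viability by CellTiter-Fluor fluorescence (Ex 405/Em 525) after 30 min; luciferase luminescence (BugLite, 15 min, RT) read afterwards.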
Nrf2 activator – activates Nrf2 signaling; AREc32 ARE-luciferase reporter (MCF7-derived line), luminescence, 24 h; Potency, µM (doses to about 46.1 µM), inactives show top-dose activation, usual class: activators; hit rate 0.31% among 410,000; AID 624171; further: potency means the concentration at half of the fitted maximal effect; % of control where 0% means no effect; nearly all actives have a fitted effect of over 65% in size
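Cells of the AREc32 ARE-luciferase line are plated in OPTI-MEM containing 5% FBS and left overnight at 37 deg C. Compounds are pinned in, incubation continues 24 hr, and firefly luciferase signal is then measured.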
Nrf2 block – inhibitors of Nrf2 signaling; A549 ARE-Fluc reporter, luciferase luminescence, 18-24 h; hit rate 2.1% among 360,000; Potency, µM (doses to about 46 µM), without a hit: top-dose activity change, negative = inhibition, usual class: inhibitors; further: potency means the concentration at half of the fitted maximal effect; on the % scale 0 is the no-effect control and ±100 the full control effect; nearly all actives have a fitted effect of over 60% in size
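Cells were seeded and rested 2 h, then exposed to compounds for 18-24 h. CellTiter-Fluor was read first as a viability measure. BugLite was added 15 min before the final luminescent read of ARE-luciferase activity in A549 cells.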
Mito fusion act – blocks mitochondrial division or promotes mitochondrial fusion; S. cerevisiae fusion-defective mutant growth rescue, CellTiterGlo 48 h; Potency, µM (doses to about 46.1 µM), for inactives: at the highest dose growth rescue (activation), actives largely listed as activators; hit rate 0.23% among 320,000; AID 485298; further: potency means the concentration at half of the fitted maximal effect; % of control where 0% means no effect; nearly all actives have a fitted effect of over 45% in size
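Yeast fusion mutant, YPEG (non-fermentable carbon), compound, 48 h at 37C non-permissive; CellTiterGlo added, 10 min RT, luminescence read. Rescued growth = division inhibition.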
miR-21 FLuc – miR-21 reporter, rising signal; HeLa miR-21 FLuc reporter, luciferase, 48 h; Potency, µM (highest dose often 38.3 µM), for the others: top-dose reporter change, positive = more light; 340,000 tested, under 10 active; AID 2288; active = well fitted rising curve with a large enough effect; inconclusive = small, poorly fitted or top-dose-only effect; inactive = no such curve, though single readings can be large or run the other way;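 further: % of control where 0% means no effect; miR-21 action dims this reporter so a rising signal means less miR-21 action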
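Compounds were titrated across several concentrations (up to approximately 40 uM) and incubated 48 hours with HeLa miR-21-FLuc reporter cells (miR-21 target sequence downstream of FLuc, endogenous miR-21). Readout was firefly luciferase luminescence after lytic detection reagent.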
An asterisk follows results filed as active; u = inconclusive; x = not tested or not shown. Only some compounds are listed: those with a hit (about 2.3% of all), similar ones and a draw of the others. Unless noted, the call rests on the fitted dose curve; in most records, active means well fitted curve in the direction sought with a large enough effect; inconclusive means small, poorly fitted or top-dose-only effect, or another doubt; inactive means no such curve, though single readings can be large; an effect the other way counts as inactive or inconclusive.

#	molecule	A549 viability	Nrf2 activator	Nrf2 block	Mito fusion act	miR-21 FLuc
1	CCC(C)(C)NC(=O)C(c1ccc(OC)cc1)N(C(=O)CCC(=O)Nc1cc(C)on1)c1cccc(F)c1 (stereo unspecified)	u	0%	5.8µM*	9%	5%
2	O=C(CSc1ccnc(=O)[nH]1)NCc1ccc(F)cc1	17%	0%	x	x	0%
3	Cn1nc(C(F)(F)F)c2cc(C(=O)Nc3ccc(F)cc3)sc21	u	0%	u	0%	4%
4	Cn1nc(C(F)(F)F)c2cc(C(=O)Nc3ccc(F)c(Cl)c3)sc21	-8%	-1%	13µM*	-5%	-1%
5	Cn1nc(C(F)(F)F)c2cc(C(=O)Nc3ccc(C(F)(F)F)cc3)sc21	u	0%	23µM*	-4%	-4%
6	CC(=O)c1c(C)oc2ccc(NS(=O)(=O)c3ccc(C(C)C)cc3)cc12	-4%	4%	13µM*	x	17%
7	CCOCCCNC(=O)/C(C#N)=C/c1ccc(Cl)c([N+](=O)[O-])c1	0%	-1%	5%	1%	u
8	CCOCCCNC(=O)/C(C#N)=C/c1cc(OC)c(O)c([N+](=O)[O-])c1	18µM*	3%	-4%	-4%	22%
9	O=c1oc2ccccc2c(Nc2ccc(F)cc2)c1[N+](=O)[O-]	-13%	28%	-25%	-7%	3%
10	O=c1oc2ccccc2c(Nc2ccc(Cl)cc2)c1[N+](=O)[O-]	-4%	14%	16µM*	2%	20%
11	O=C(Nc1ccc(-c2nc3ccccc3o2)c(O)c1)c1cc(-n2cnnc2)ccc1Cl	x	2%	10µM*	2%	0%
12	Cn1nc(C(F)(F)F)c(/C=N/OC(=O)c2ccccc2Cl)c1SCc1ccc(Cl)cc1	u	-1%	21µM*	3%	-4%

Structures listed so far that contain an aryl thioether with sulfur outside any ring, in the order listed:
#	molecule	A549 viability	Nrf2 activator	Nrf2 block	Mito fusion act	miR-21 FLuc
2	O=C(CSc1ccnc(=O)[nH]1)NCc1ccc(F)cc1	17%	0%	x	x	0%
12	Cn1nc(C(F)(F)F)c(/C=N/OC(=O)c2ccccc2Cl)c1SCc1ccc(Cl)cc1	u	-1%	21µM*	3%	-4%

3 entries out of the list, arranged by formula weight, rising:
#	molecule	A549 viability	Nrf2 activator	Nrf2 block	Mito fusion act	miR-21 FLuc
9	O=c1oc2ccccc2c(Nc2ccc(F)cc2)c1[N+](=O)[O-]	-13%	28%	-25%	-7%	3%
10	O=c1oc2ccccc2c(Nc2ccc(Cl)cc2)c1[N+](=O)[O-]	-4%	14%	16µM*	2%	20%
7	CCOCCCNC(=O)/C(C#N)=C/c1ccc(Cl)c([N+](=O)[O-])c1	0%	-1%	5%	1%	u

Next records:
#	molecule	A549 viability	Nrf2 activator	Nrf2 block	Mito fusion act	miR-21 FLuc
13	COc1ccc(C(=O)O/N=C/c2c(C(F)(F)F)nn(C)c2SCc2ccccc2Cl)cc1	u	0%	u	1%	-3%
14	O=C(NC(=S)Nc1ccc(NC(=O)c2cccs2)cc1)c1cc2ccccc2o1	-15%	0%	u	0%	-10%
15	O=C(c1cc2ccccc2o1)c1cccs1	0%	22µM*	u	0%	-60%
16	O=S(=O)(c1ccc(Br)cc1)N1CCN(c2nc(-c3cccs3)nc3ccccc23)CC1	0%	x	-2%	x	x
17	CCC(O)CNC(=O)NC(=C(Cl)Cl)c1ccc(C)c(F)c1 (stereo unspecified)	-14%	u	18µM*	-3%	16%
18	CCNC(=O)C1(C)CCN(C(=O)c2ccc(C)c(F)c2)C1 (stereo unspecified)	x	1%	x	x	x
19	CCCOc1ccc(NC(=O)CC2C(=O)N(c3ccc(C)cc3)C(=O)N2C2CCCC2)cc1 (stereo unspecified)	-14%	4%	21%	x	-2%
20	C/C(=N\NC(=O)c1nnn(-c2nonc2N)c1C(C)C)c1cc(C)sc1C	1%	0%	-3%	32µM*	-1%
21	COc1ccc(/C(C)=N/NC(=O)c2nnn(-c3nonc3N)c2CN(C)c2ccccc2)cc1	-13%	0%	16µM*	4%	-4%
22	C/C(=N\NC(=O)c1nnn(-c2nonc2N)c1CN(C)c1ccccc1)c1ccccc1O	-18%	-1%	8.2µM*	-2%	27%
23	O=C(OCC#CCSc1nnc(-c2cccc3ccccc23)o1)c1sccc1Cl	-13%	x	2%	x	x
24	CCc1ccc(S(=O)(=O)c2cn(C)c3cc(F)c(F)cc3c2=O)cc1	5%	4%	2%	x	4%

Going on with the list:
Screens in order – A549 viability, Nrf2 activator, Nrf2 block, Mito fusion act, miR-21 FLuc
25	O=[S+]([O-])(c1ccc2c(c1)OCCO2)N1CCN([S+](=O)([O-])c2ccc(F)cc2Br)CC1
 : 4%, x, -11%, x, x
26	Cc1ccc(-c2nc(NC(=O)c3cc(C(C)(C)C)nn3C)sc2C)cc1Cl
 : -5%, 0%, 21µM*, -2%, 2%
27	CCCC(=O)Nc1nnc(SCc2cc(=O)c3ccc(C)cc3[nH]2)s1
 : 1%, 0%, x, x, -2%
28	Cn1c2cc(C#N)sc2c2cnn(Cc3ccccc3F)c(=O)c21
 : -4%, x, 13%, x, x
29	CC[N+](CC)(CC)CCOc1ccc(/C=C/c2ccccc2)cc1
 : -9%, -1%, 15µM*, -20%, x
30	O=C(Nc1cc(Cl)ccc1O)c1cc(-c2ccco2)on1
 : -4%, 6.3µM*, -12%, 5%, -65%
